From ChEMBL document CHEMBL2396622, “Interfacial cavity filling to optimize CD4-mimetic miniprotein interactions with HIV-1 surface glycoprotein” (J Med Chem, 2013)

assay: Cytotoxicity against human TZM-bl cells after 48 hrs by WST-1 assay; type: ADME, cell-based
Method in brief: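 Cells seeded at 10⁴/well with serial compound dilutions; after 48 h WST-1 reagent added and formazan absorbance read at 450 nm. Viability relative to untreated cultures plotted against concentration; CC₅₀ from non-linear regression.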

Q: For `CC(C)C[C@@H]1NC(=O)CNC(=O)[C@H](CC(C)C)NC(=O)[C@H](CO)NC(=O)[C@H](CCCCN)NC(=O)[C@@H]2CSSC[C@@H](C(=O)N[C@H](C(N)=O)C(C)C)NC(=O)[C@H](C)NC(=O)[C@@H]3CSSC[C@H](NC(=O)[C@H](Cc4ccccc4)NC(=O)[C@H](Cc4cnc[nH]4)NC(=O)[C@H](CC(C)C)NC(=O)[C@H](CC(N)=O)NC(=O)CCSSC[C@H](NC(=O)[C@H](CCCNC(=N)N)NC(=O)CNC(=O)[C@H](CC(C)C)NC1=O)C(=O)N[C@@H](C)C(=O)N1CCC[C@@H]1C(=O)N[C@@H]([C@@H](C)O)C(=O)N[C@@H](Cc1ccc(OCC4CCCCC4)cc1)C(=O)N3)C(=O)N[C@@H](CCC(N)=O)C(=O)N[C@@H](CC(C)C)C(=O)N[C@@H](CCCNC(=N)N)C(=O)N2`, which CC50 at 48 h is on record?
A: > 50 µM

Q: Which CC50 at 48 h does the source give for `CC(C)C[C@@H]1NC(=O)CNC(=O)[C@H](CC(C)C)NC(=O)[C@H](CO)NC(=O)[C@H](CCCCN)NC(=O)[C@@H]2CSSC[C@@H](C(=O)N[C@H](C(N)=O)C(C)C)NC(=O)[C@H](C)NC(=O)[C@@H]3CSSC[C@H](NC(=O)[C@H](Cc4ccccc4)NC(=O)[C@H](Cc4cnc[nH]4)NC(=O)[C@H](CC(C)C)NC(=O)[C@H](CC(N)=O)NC(=O)CCSSC[C@H](NC(=O)[C@H](CCCNC(=N)N)NC(=O)CNC(=O)[C@H](CC(C)C)NC1=O)C(=O)N[C@@H](C)C(=O)N1CCC[C@@H]1C(=O)N[C@@H]([C@@H](C)O)C(=O)N[C@@H](Cc1ccc(OCCC4CCCC4)cc1)C(=O)N3)C(=O)N[C@@H](CCC(N)=O)C(=O)N[C@@H](CC(C)C)C(=O)N[C@@H](CCCNC(=N)N)C(=O)N2` here?
A: > 15 µM

Q: With `CC(C)C[C@@H]1NC(=O)CNC(=O)[C@H](CC(C)C)NC(=O)[C@H](CO)NC(=O)[C@H](CCCCN)NC(=O)[C@@H]2CSSC[C@@H](C(=O)N[C@H](C(N)=O)C(C)C)NC(=O)[C@H](C)NC(=O)[C@@H]3CSSC[C@H](NC(=O)[C@H](Cc4ccccc4)NC(=O)[C@H](Cc4cnc[nH]4)NC(=O)[C@H](CC(C)C)NC(=O)[C@H](CC(N)=O)NC(=O)CCSSC[C@H](NC(=O)[C@H](CCCNC(=N)N)NC(=O)CNC(=O)[C@H](CC(C)C)NC1=O)C(=O)N[C@@H](C)C(=O)N1CCC[C@@H]1C(=O)N[C@@H]([C@@H](C)O)C(=O)N[C@@H](Cc1ccc(OCCc4ccccc4)cc1)C(=O)N3)C(=O)N[C@@H](CCC(N)=O)C(=O)N[C@@H](CC(C)C)C(=O)N[C@@H](CCCNC(=N)N)C(=O)N2` as the compound, how does the CC50 at 48 h read?
A: > 15 µM

Q: For `CC(C)C[C@@H]1NC(=O)CNC(=O)[C@H](CC(C)C)NC(=O)[C@H](CO)NC(=O)[C@H](CCCCN)NC(=O)[C@@H]2CSSC[C@@H](C(=O)N[C@H](C(N)=O)C(C)C)NC(=O)[C@H](C)NC(=O)[C@@H]3CSSC[C@H](NC(=O)[C@H](Cc4ccccc4)NC(=O)[C@H](Cc4cnc[nH]4)NC(=O)[C@H](CC(C)C)NC(=O)[C@H](CC(N)=O)NC(=O)CCSSC[C@H](NC(=O)[C@H](CCCN=C(N)N)NC(=O)CNC(=O)[C@H](CC(C)C)NC1=O)C(=O)N[C@@H](C)C(=O)N1CCC[C@@H]1C(=O)N[C@@H]([C@@H](C)O)C(=O)N[C@@H](Cc1ccc(OCCCCCO)cc1)C(=O)N3)C(=O)N[C@@H](CCC(N)=O)C(=O)N[C@@H](CC(C)C)C(=O)N[C@@H](CCCN=C(N)N)C(=O)N2`, which CC50 at 48 h is on record?
A: > 50 µM

Q: With `CC(C)C[C@@H]1NC(=O)CNC(=O)[C@H](CC(C)C)NC(=O)[C@H](CO)NC(=O)[C@H](CCCCN)NC(=O)[C@@H]2CSSC[C@@H](C(=O)N[C@H](C(N)=O)C(C)C)NC(=O)[C@H](C)NC(=O)[C@@H]3CSSC[C@H](NC(=O)[C@H](Cc4ccccc4)NC(=O)[C@H](Cc4cnc[nH]4)NC(=O)[C@H](CC(C)C)NC(=O)[C@H](CC(N)=O)NC(=O)CCSSC[C@H](NC(=O)[C@H](CCCNC(=N)N)NC(=O)CNC(=O)[C@H](CC(C)C)NC1=O)C(=O)N[C@@H](C)C(=O)N1CCC[C@@H]1C(=O)N[C@@H]([C@@H](C)O)C(=O)N[C@@H](Cc1ccc(OCCSCCO)cc1)C(=O)N3)C(=O)N[C@@H](CCC(N)=O)C(=O)N[C@@H](CC(C)C)C(=O)N[C@@H](CCCNC(=N)N)C(=O)N2` as the compound, how does the CC50 at 48 h read?
A: > 50 µM

Q: Which CC50 at 48 h does the source give for `CC(C)C[C@@H]1NC(=O)CNC(=O)[C@H](CC(C)C)NC(=O)[C@H](CO)NC(=O)[C@H](CCCCN)NC(=O)[C@@H]2CSSC[C@@H](C(=O)N[C@H](C(N)=O)C(C)C)NC(=O)[C@H](C)NC(=O)[C@@H]3CSSC[C@H](NC(=O)[C@H](Cc4ccccc4)NC(=O)[C@H](Cc4cnc[nH]4)NC(=O)[C@H](CC(C)C)NC(=O)[C@H](CC(N)=O)NC(=O)CCSSC[C@H](NC(=O)[C@H](CCCN=C(N)N)NC(=O)CNC(=O)[C@H](CC(C)C)NC1=O)C(=O)N[C@@H](C)C(=O)N1CCC[C@@H]1C(=O)N[C@@H]([C@@H](C)O)C(=O)N[C@@H](Cc1ccc(NCC4CCCCC4)cc1)C(=O)N3)C(=O)N[C@@H](CCC(N)=O)C(=O)N[C@@H](CC(C)C)C(=O)N[C@@H](CCCN=C(N)N)C(=O)N2` here?
A: > 40 µM
